In ChEMBL document CHEMBL1131225, “Macrocyclic amino carboxylates as selective MMP-8 inhibitors” (J Med Chem, 1998):

Biological target: T1, Interstitial collagenase (Homo sapiens, UniProt P03956)
T1 sequence (P03956 whole entry): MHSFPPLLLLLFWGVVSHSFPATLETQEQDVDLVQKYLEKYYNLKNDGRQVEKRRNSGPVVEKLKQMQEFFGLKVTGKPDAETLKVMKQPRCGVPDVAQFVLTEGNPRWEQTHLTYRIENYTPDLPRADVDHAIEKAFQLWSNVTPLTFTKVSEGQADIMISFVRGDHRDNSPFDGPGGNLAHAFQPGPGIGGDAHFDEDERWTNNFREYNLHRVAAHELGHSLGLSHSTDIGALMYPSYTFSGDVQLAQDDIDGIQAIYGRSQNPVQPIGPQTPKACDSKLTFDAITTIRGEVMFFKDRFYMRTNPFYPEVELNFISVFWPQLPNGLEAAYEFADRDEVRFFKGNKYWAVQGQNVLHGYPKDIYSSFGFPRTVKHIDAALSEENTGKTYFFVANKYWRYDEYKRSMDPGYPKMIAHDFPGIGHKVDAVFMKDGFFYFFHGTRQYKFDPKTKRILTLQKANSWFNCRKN
Experiment: Inhibition of Matrix metalloprotease-1

Ki	SMILES
2.5 µM	CNC(=O)[C@@H]1CCCCNC(=O)CC[C@H](C(=O)O)N[C@@H](CCc2ccccc2)C(=O)N1
2.86 µM	CNC(=O)CC[C@@H](N[C@@H](CCc1ccccc1)C(=O)N[C@@H](CCCCNC(C)=O)C(=O)NC)C(=O)O
